Source: patent US20050037476A1, “Modified Wee1, crystals of peptide: inhibitor complexes containing such modified Wee1, and methods of use thereof” (Pfizer Inc, priority 2003, published 2005)

Protein sequences, listed by entry. Tags and fused reporters are not part of them. Residues count along the entry.
UniProt O14757, whole entry, species assumed: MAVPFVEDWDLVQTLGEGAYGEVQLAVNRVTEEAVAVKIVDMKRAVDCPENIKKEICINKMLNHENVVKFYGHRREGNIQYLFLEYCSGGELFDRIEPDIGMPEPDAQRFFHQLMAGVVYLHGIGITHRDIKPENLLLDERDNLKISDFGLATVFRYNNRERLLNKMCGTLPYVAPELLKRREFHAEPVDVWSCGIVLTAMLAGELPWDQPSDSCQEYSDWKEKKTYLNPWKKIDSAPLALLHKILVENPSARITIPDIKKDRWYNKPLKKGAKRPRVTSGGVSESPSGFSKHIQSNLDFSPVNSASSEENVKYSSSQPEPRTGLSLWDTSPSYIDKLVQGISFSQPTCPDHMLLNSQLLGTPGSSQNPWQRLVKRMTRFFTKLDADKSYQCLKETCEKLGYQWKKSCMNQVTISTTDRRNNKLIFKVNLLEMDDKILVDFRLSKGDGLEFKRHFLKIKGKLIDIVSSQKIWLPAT
UniProt P30291, 215-646 limits assumed: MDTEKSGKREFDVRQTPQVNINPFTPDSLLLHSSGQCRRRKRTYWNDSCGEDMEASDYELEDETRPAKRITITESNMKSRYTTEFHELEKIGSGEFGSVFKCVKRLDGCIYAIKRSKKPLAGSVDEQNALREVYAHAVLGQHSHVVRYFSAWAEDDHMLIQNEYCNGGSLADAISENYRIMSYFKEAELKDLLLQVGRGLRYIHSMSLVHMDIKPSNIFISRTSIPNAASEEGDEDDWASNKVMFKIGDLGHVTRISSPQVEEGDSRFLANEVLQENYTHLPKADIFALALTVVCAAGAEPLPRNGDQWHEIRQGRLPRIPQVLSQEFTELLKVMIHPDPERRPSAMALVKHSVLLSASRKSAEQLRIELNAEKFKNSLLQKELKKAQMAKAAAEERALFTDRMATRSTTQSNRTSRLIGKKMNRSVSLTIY

What was measured:
Chk1 = Chk1 (Homo sapiens, UniProt O14757)
[1] = target: human Wee1 kinase aa215-647 (Homo sapiens, UniProt P30291); test: biochemical

Compound: O=C(O)CCn1c2ccc(O)cc2c2c3c(c(-c4ccccc4)cc21)C(=O)NC3=O [3-(9-Hydroxy-1,3-dioxo-4-phenyl-2,3-dihydro-1H-pyrrolo[3,4-c]carbazol-6-yl)-propionic acid]
- selectivity for Wee1 over Chk1 (Chk1): 18.6 fold
- IC50 [1]: 22 nM
